Test results taken from patent publication US4774345A, “Amine-complexed zinc salts of organic diacids” (Engelhard Corporation, priority 1986, dated 1988).

Assay: Salt spray exposure, Example VI (ASTM B117-73; alkyd and latex primers)

Zinc Succinate Ethylenediamine [Compound 1]
Salt spray durability, in words: superior to "Zinc Yellow" (zinc chromate) in salt spray durability
